“Also recorded” adds a separate entry of the source.
What was measured:
Format in all cases: cell-based, human
[1] = test system: IFN targets (interferon response pathway); test: Gene expression microarrays after PD325901, IFNβ or their combination; settings: 8 hours after treatment; IFNβ 1000U/mL; three low- and three high-pSTAT1 cell lines; listed as IFN
[2] = test system: high pSTAT1 cell line; test: Cytotoxicity of IFN by SubG1 percentage; settings: 48 hours after treatment
Method: FIG. 12—A. Dose-dependent response to IFNα and IFNβ. The cytotoxicity of IFN was assessed in high pSTAT1 cell line, 48 hours after treatment using SubG1 percentage. […] 1000 Units/mL of IFNβ was used for the experiments in Examples. Cells plated in 6 well plates, 200K cells/well, in 2 mL of growth media. B. Growth curves of 2 low- (top) and 2 high- (bottom) pSTAT1 cell lines with MEK inhibition, IFNβ or both. 50K cells per well were plated in 6-well plates with 2 mL of media and treated 24 hours later. Cells were counted every 24 hours up to 72 hours. C. Comparison of MEK inhibition and BRAF inhibition, with and without combination with IFNβ. Cells were plated in 6 well plates, 200K cells/well with 2 mL media.

[3] = test system: pSTAT1 (interferon-STAT1 pathway); test: Western blots of pSTAT1 levels; settings: low- and high-pSTAT1 cell lines
Method: (§1) Control samples were collected untreated at time of treatment.
(§2) Samples for protein analysis were lysed using RIPA buffer. Protein concentration was assessed using BCA staining Samples were then normalized to a fixed concentration and mixed with a 5× glycerol/SDS/DTT loading buffer. Lysates were run on gradient (4-12%) Bis-Tris gels. After incubation with horseradish peroxidase-conjugated secondary antibodies, proteins were detected using chemiluminescence.

[4] = test system: caspase pathway (caspases 9, 7 and 3); test: Cleaved caspases by Western blot; settings: IFNβ single agent
Method: as §1, §2

[5] = test system: melanoma cell lines (low- and high-pSTAT1); test: Apoptosis assessed by TUNEL staining 72 h after treatment; settings: for cytotoxic effect of IFNβ as single agent (TUNEL): IFNβ 1000 U/mL, 72 h
Method: as §1
Apoptosis was assessed by TUNEL staining Cells were plated in 6-well plates at 200K cells/well. […] TUNEL was performed using Invitrogen BrdU TUNEL kit.

[6] = test system: intrinsic apoptotic pathway (cytochrome C release); test: Cytochrome C release from the mitochondria; settings: all cell lines, including high-pSTAT1
Method: Cytochrome C release was assessed on fresh unfrozen pellets using Sucrose/Mannitol buffer (Majewski et al., 2004). Full details in the supplementary material.
Protocol for Cytochrome C release is taken, as is, from Majewski et al 2004. Lysis buffer: 20 mM Hepes-KOH, [pH 7.5], 210 mM sucrose, and 70 mM mannitol; 1.5 mM MgCl2, 10 mM […], protease inhibitor, and 1 mg digitonin/1 mL lysis buffer.
Cells are trypsinized, collected and spun down in 4C. They are then washed with PBS and spun down again. It is critical that cell pellets will be lysed immediately without freezing. Cells are gently suspended, without vortexing, in lysis buffer. Roughly double the cell pellet volume is used. They are incubated in 25C for 3-10 min, depending all cell line. Spun down at 4C for 20 minutes at highest speed. Supernatant contains cytoplasmic fraction.

IFNβ: Interferon beta (1000 U/mL, R&D 11415), Type I interferon
increase in expression of IFN targets following IFNβ treatment [1]: up to 500 fold | cytotoxic / apoptotic effect of IFN (SubG1 percentage) [2]: stronger apoptotic response than IFNα; also recorded: dose-dependent effects | pSTAT1 levels after treatment [3]: quickly elevates pSTAT1 levels | caspase activation by IFNβ alone [4]: does not activate them; also recorded: fails to activate the pathway by itself | cytotoxic effect of IFNβ as single agent (TUNEL) ([5]; high-pSTAT1 cell lines): one high-pSTAT1 cell line was marginally sensitive | increase in TUNEL-positive cells when IFNβ is added to MEK inhibition ([5]; low-pSTAT1 cell lines, IFNβ 1000 U/mL + PD325901 50 nM, versus MEK inhibition alone): almost two-fold | cytotoxic effect of IFNβ as single agent (TUNEL) ([5]; low-pSTAT1 cell lines): resistant; also recorded: no cytotoxic effect | effect of IFNβ co-treatment on MEKi-induced cytochrome C release [6]: enhances the response in all cell lines
